This is a selection; strong and weak results do not stand in their true shares. Calls of active or inactive are those of the source.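 How the source made its calls: active means thallium signal drop beyond 5 SD of the untreated control mean, on both duplicate plates; inactive means the rest.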
Assay: thallium flux in non-induced HEK293 cells, confirmation, counter-screen for KCNK9 inhibitor project, cell-based, second counter screen, non-induced KCNK9-HEK293 (AID 492997);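 further: plate controls were buffer only IC0 wells for no effect and SID17386958 at its maximal inhibitory level for full effect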
Conditions: non-induced KCNK9-HEK293, FluxOR thallium flux; at 10 µM; hits give high values

Structure (SMILES) | inhibition
CC(C)(C)OC(=O)N1CCC(N(C(=O)c2ccccc2)c2ccc(Cl)cc2)CC1 | active: 33%
COc1cccc(C(=O)N(c2cc(C)cc(C)c2)C2CCN(C(=O)OC(C)(C)C)CC2)c1 | active: 33.5%
Cc1cc(C)cc(N(C(=O)c2ccccc2)C2CCN(C(=O)OC(C)(C)C)CC2)c1 | active: 29.5%
CC(C)(C)OC(=O)N1CCC(N(C(=O)c2ccccc2)c2ccc(F)cc2)CC1 | active: 30%

Source: PubChem BioAssay AID492997 (Johns Hopkins Ion Channel Center, 2010)
